We go through 1 molecule from US9828352B2, “Phenyl carbamates and their use as inhibitors of the fatty acid amide hydrolase (FAAH) enzyme and modulators of the D3 dopamine receptor (D3DR)” (FONDAZIONE ISTITUTO ITALIANO DI TECNOLOGIA, priority 2013, dated 2017).

Amino acid sequences for entries named in this document (tags omitted). A change or cut given only in a name is not applied to a line headed by its entry.
UniProt P35462, whole entry: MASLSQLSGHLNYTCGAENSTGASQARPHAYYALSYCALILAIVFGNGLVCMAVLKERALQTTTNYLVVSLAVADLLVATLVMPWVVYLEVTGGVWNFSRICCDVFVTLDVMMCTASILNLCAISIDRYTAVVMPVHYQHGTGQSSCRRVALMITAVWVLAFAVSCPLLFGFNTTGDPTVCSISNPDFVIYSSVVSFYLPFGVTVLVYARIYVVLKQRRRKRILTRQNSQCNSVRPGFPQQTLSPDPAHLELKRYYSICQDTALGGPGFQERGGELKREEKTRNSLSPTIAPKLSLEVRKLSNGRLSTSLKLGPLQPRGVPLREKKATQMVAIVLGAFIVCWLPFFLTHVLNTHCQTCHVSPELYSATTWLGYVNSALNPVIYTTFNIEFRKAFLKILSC

Usually EC50 stands for the concentration giving half of the maximal effect. The low end stands for a more potent agent, the high end for a less potent agent.

This experiment addresses T1, human-D3R (Homo sapiens, UniProt P35462).
T1 construct: expressed in transfected cells; host or cells: CHO cell line stably transfected with human D3R
Kind of experiment: D3 Dopamine Receptor (D3dR) cellular assay, cAMP HTRF functional assay in human-D3R expressing CHO cells. It is filed as cell-based. The conditions noted are these: one experiment in duplicate. The protocol: D3 Dopamine Receptor (D3dR) Cellular Assay
Activity on D3R was tested with a cAMP functional assay on a stably transfected human-D3R expressing CHO cell line. On the day of the assay performance the cells were washed twice with PBS (w/o calcium and magnesium) and dislodged with a cell scraper, transferred to PBS, centrifuged and re-suspended in HBSS (w/o calcium and magnesium), supplemented with 1 g/L glucose and […] IBMX. The cell suspension was seeded on a 384 well plate (Greiner) and the assay was performed by adding compounds either test compounds alone (for agonist activity), or with test compound after a pre-incubation with 10 nM Dopamine as a stimulant (for antagonistic activity). After incubation (30 min at RT) the cell stimulation was stopped by adding the detecting reagents (cAMP-XL665 and anti-cAMP cryptate) diluted in lysis buffer. The signal was quantified by Homogenous Time-Resolved Fluorescence (HTRF) on a Perkin Elmer Envision plate reader after one hour of incubation at RT.
EC50 or IC50 values (concentrations causing half-maximal response or inhibition of control agonist response) were determined by non-linear regression analysis of the Log [concentration]/response curves generated with mean replicate values using a four parameter Hill equation curve fitting with GraphPad Prism 5 (GraphPad Software Inc., CA—USA).
(TR-FRET usually uses a lanthanide donor and a delayed reading to cut background.)

Structures are written as SMILES.

`NC(=O)c1cccc(-c2ccc(OC(=O)NCCCCN3CCN(c4cccc(Cl)c4Cl)CC3)cc2F)c1` [Example 21, [4-(3-carbamoylphenyl)-3-fluoro-phenyl] N-[4-[4-(2,3-dichlorophenyl)piperazin-1-yl]butyl]carbamate] displayed an EC50 of 18.6 nM.
